According to PubChem BioAssay AID651658 (Broad Institute, 2012):
The entries are a selection whose mix differs from that of the whole data set. Some results for these compounds are left out of this collection, so the calls shown say nothing about other tests. Activity calls are given as the source filed them.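 Rule for the calls: active = mean Tm shift, scaled 0 neutral to 100 positive control, at about 1.3% or above, every replicate too (limit read from the data); inconclusive = no clear call, values can overlap the other calls; inactive = the rest.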

Amino acid sequences for entries named in this document (tags omitted).
UniProt Q9HCT0, whole entry: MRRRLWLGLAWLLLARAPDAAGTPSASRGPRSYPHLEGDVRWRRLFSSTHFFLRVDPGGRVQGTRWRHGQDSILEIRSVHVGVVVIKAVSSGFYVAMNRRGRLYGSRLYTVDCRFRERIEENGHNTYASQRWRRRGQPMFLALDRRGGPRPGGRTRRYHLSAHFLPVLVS

What follows are molecules tested against Fibroblast growth factor 22 (Homo sapiens) (UniProt Q9HCT0) (assay: FGF22 ligand-induced thermal stabilization – biophysical, thermal shift, single point, FGF22 synaptogenesis inhibitor project, primary screen (AID 651658)). Conditions: recombinant FGF22 thermal shift, SYPRO orange fluorescence; at 9.99 µM; active compounds read high; percent of sucrose octasulfate shift, DMSO zero.
For `COc1cccc(C(=O)NCC2(N3CCCCC3)CCCCC2)c1`, the activity (Tm shift, normalised) was inactive: 0.114%.
With `COc1ccc(Cl)cc1C(=O)NCC1(N(C)C)CCCCC1` the activity (Tm shift, normalised) was inactive: -0.141%.
In the case of `O=C(NCC1(N2CCCCC2)CCCCC1)c1cccc(Cl)c1`, the activity (Tm shift, normalised) is reported as inactive: -0.04%.
With `CN(C)C1(CNC(=O)c2ccc(Br)cc2)CCCCC1` the activity (Tm shift, normalised) was inactive: -0.144%.
For `COc1cc(C(=O)NCC2(N(C)C)CCCCC2)c([N+](=O)[O-])cc1OC`, the activity (Tm shift, normalised) was inactive: -0.324%.
In the case of `C=C(C)C#CC(O)(C(=O)OC1CCN(C)CC1)c1ccccc1` (configuration not stated), the activity (Tm shift, normalised) is reported as active: 43%.
With `COc1ccc(Br)c(C(=O)NCC2(N3CCCCC3)CCCCC2)c1` the activity (Tm shift, normalised) was inactive: 0.105%.
`CC(C)Oc1ccc(C(=O)NCC2(N(C)C)CCCCC2)cc1` was tested, and the activity (Tm shift, normalised) was inactive: -0.131%.
In the case of `O=C(OCCN1CCCC1)C(O)(c1ccccc1)c1ccccc1`, the activity (Tm shift, normalised) is reported as inactive: 0.166%.
With `CCN(CC)CC(C)C(C)OC(=O)C(O)(c1ccccc1)c1ccccc1` (configuration not stated) the activity (Tm shift, normalised) was inactive: -0.071%.
`COc1cc(SC)ccc1C(=O)NCC1(N(C)C)CCCCC1` was tested, and the activity (Tm shift, normalised) was inactive: 0.204%.
In the case of `Cc1ccc(C(=O)NCC2(N3CCCCC3)CCCCC2)cc1`, the activity (Tm shift, normalised) is reported as inactive: -0.372%.
In the case of `O=C(NCC1(N2CCCCC2)CCCCC1)c1cc([N+](=O)[O-])ccc1Cl`, the activity (Tm shift, normalised) is reported as inactive: -0.193%.
In the case of `CN1[C@@H]2CC[C@H]1CC(OC(=O)C(O)(c1ccccc1)c1ccccc1)C2` (some centres not stated), the activity (Tm shift, normalised) is reported as inactive: -0.083%.
For `C=CCN1CCN(CCOC(=O)C(O)(c2ccccc2)c2ccccc2)CC1`, the activity (Tm shift, normalised) was inactive: 0.527%.
With `O=C(NCC1(N2CCCCC2)CCCCC1)c1cc(F)c(F)cc1Cl` the activity (Tm shift, normalised) was inactive: -0.053%.
For `COc1ccc(C(=O)NCC2(N(C)C)CCCCC2)cc1`, the activity (Tm shift, normalised) was inactive: -0.144%.
With `Cc1cc(C(=O)NCC2(N3CCCCC3)CCCCC2)ccc1[N+](=O)[O-]` the activity (Tm shift, normalised) was inactive: -0.442%.
In the case of `O=C(NCC1(N2CCCCC2)CCCCC1)c1cccc(Br)c1`, the activity (Tm shift, normalised) is reported as inactive: -0.026%.
With `Cc1ccccc1C(=O)NCC1(N2CCCCC2)CCCCC1` the activity (Tm shift, normalised) was inactive: 0.093%.
`CN(C)C1CCCC1OC(=O)C(O)(c1ccccc1)c1ccccc1` (configuration not stated) was tested, and the activity (Tm shift, normalised) was inactive: -0.264%.
For `CN(C)c1ccc(C(=O)NCC2(N(C)C)CCCCC2)cc1`, the activity (Tm shift, normalised) was inactive: 0.168%.
